Laboratory results published in patent US20250164502A1, “Mutant Human Nax Proteins and Screening Methods” (Genentech, Inc., priority 2021, published 2025).

Biological target: Full-length human NaX containing tandem 2x StrepII and 2xFLAG tags at its N-terminus (human) (UniProt Q01118)
Assay: LC-MS/MS of the NaX-containing SEC peak after FLAG and Strep affinity purification, NaX co-expressed with β3

How did the #PSMs turn out when “ATP1A1 a-subunit (Na+/K+-ATPase alpha-1 subunit) (from UniProt P05023 1-1023) (enzyme)” was run?
The #PSMs was 24 PSMs.

What about the % Coverage of the same substance?
Its % Coverage is 21%.
